According to PubChem BioAssay AID485297 (National Center for Advancing Translational Sciences (NCATS), 2010):
This is a selection; strong and weak results do not stand in their true shares. Some tests of the compounds listed are not included; inactive here does not mean inactive elsewhere. Records with an inconclusive call do not appear. The source made the active and inactive calls. Calls come from the whole dose curve; as a rule, active = well fitted activation curve with a large enough effect; inconclusive = small, poorly fitted or top-dose-only effect; inactive = no such curve, though single readings can be large or run the other way.

Test: qHTS Assay for Rab9 Promoter Activators; note: % of control where 0% means no effect; nearly all actives have a fitted effect of over 60% in size
Conditions: Huh7 Rab9 promoter-luciferase reporter, luminescence, 24 h; at 9.22 µM (top of the series) unless noted

Row | SMILES | activation, negative = inhibition
1 | O=C(OC1CN2CCC1CC2)C(CO)(c1ccccc1)c1ccccc1 (centres undefined) | inactive: -11.4%
2 | CC(C)Oc1ccc(C(=O)NCC2(N(C)C)CCCCC2)cc1 | inactive: 8.06%
3 | CN(C)c1cccc(C(=O)NCC2(N(C)C)CCCCC2)c1 | inactive: 6.43%
4 | COc1ccc(Br)c(C(=O)NCC2(N3CCCCC3)CCCCC2)c1 | inactive: -5.79%
5 | COc1cc(C(=O)NCC2(N(C)C)CCCCC2)c([N+](=O)[O-])cc1OC | inactive: 4.49%
6 | CN(C)C1(CNC(=O)c2ccc(Br)cc2)CCCCC1 | inactive: -10.9%
7 | O=C(NCC1(N2CCCCC2)CCCCC1)c1cccc(Cl)c1 | inactive: -4.48%
8 | COc1ccc(Cl)cc1C(=O)NCC1(N(C)C)CCCCC1 | inactive: -0.0604%
9 | COc1cccc(C(=O)NCC2(N3CCCCC3)CCCCC2)c1 | inactive: -5.82%
10 | CN(C)C1CCCC1OC(=O)C(O)(c1ccccc1)c1ccccc1 (centres undefined) | inactive: -1.74%
11 | CN(C)c1ccc(C(=O)NCC2(N(C)C)CCCCC2)cc1 | inactive: -3.27%
12 | Cc1ccccc1C(=O)NCC1(N2CCCCC2)CCCCC1 | inactive: 23.8%
13 | COc1ccc(C(=O)NCC2(N(C)C)CCCCC2)cc1 | inactive: 12.4%
14 | O=C(NCC1(N2CCCCC2)CCCCC1)c1cccc(Br)c1 | inactive: -3.74%
15 | Cc1cc(C(=O)NCC2(N3CCCCC3)CCCCC2)ccc1[N+](=O)[O-] | inactive: -3.58%
16 | CCN1CCCC(OC(=O)C2(O)c3ccccc3C=Cc3ccccc32)C1 (centres undefined) | inactive: -1.58%
17 | O=C(NCC1(N2CCCCC2)CCCCC1)c1cc(F)c(F)cc1Cl | inactive: 0.551%
18 | C=CCN1CCN(CCOC(=O)C(O)(c2ccccc2)c2ccccc2)CC1 | inactive: 1%
19 | CN1[C@@H]2CC[C@H]1CC(OC(=O)C(O)(c1ccccc1)c1ccccc1)C2 (some centres undefined) | inactive: 3.26%
20 | O=C(NCC1(N2CCCCC2)CCCCC1)c1cc([N+](=O)[O-])ccc1Cl | inactive: -7%
21 | Cc1ccc(C(=O)NCC2(N3CCCCC3)CCCCC2)cc1 | inactive: -0.202%
22 | COc1cc(SC)ccc1C(=O)NCC1(N(C)C)CCCCC1 | inactive: -4.25% [at 1.84 µM]
23 | CCN(CC)CC(C)C(C)OC(=O)C(O)(c1ccccc1)c1ccccc1 (centres undefined) | inactive: -0.0354%
24 | CC(C)N1C(=O)CC2(CCN(CCOC(=O)C(O)(c3ccccc3)c3ccccc3)CC2)C1=O | inactive: 2.56%
